Target: SARS-CoV-2 M^pro spiked into A431 cell lysate (Severe acute respiratory syndrome coronavirus 2, UniProt P0DTD1)
Type: binding

## COc1cccc2[nH]c(C(=O)N[C@@H](CC(C)C)C(=O)N[C@@H](C[C@@H]3CCNC3=O)C(=O)CO)cc12 [PF-00835231]
  effect of preincubation on the ∼34 kDa M^pro band labeled by (R,R)-22: disappeared
